Data: PMC8698692, “Generation of a Novel High-Affinity Antibody Binding to PCSK9 Catalytic Domain with Slow Dissociation Rate by CDR-Grafting, Alanine Scanning and Saturated Site-Directed Mutagenesis for Favorably Treating Hypercholesterolemia” (Biomedicines, 2021)

The chains behind the UniProt entries cited, without tags or fusion partners. Residues count along the entry.
UniProt Q8NBP7, 31-692: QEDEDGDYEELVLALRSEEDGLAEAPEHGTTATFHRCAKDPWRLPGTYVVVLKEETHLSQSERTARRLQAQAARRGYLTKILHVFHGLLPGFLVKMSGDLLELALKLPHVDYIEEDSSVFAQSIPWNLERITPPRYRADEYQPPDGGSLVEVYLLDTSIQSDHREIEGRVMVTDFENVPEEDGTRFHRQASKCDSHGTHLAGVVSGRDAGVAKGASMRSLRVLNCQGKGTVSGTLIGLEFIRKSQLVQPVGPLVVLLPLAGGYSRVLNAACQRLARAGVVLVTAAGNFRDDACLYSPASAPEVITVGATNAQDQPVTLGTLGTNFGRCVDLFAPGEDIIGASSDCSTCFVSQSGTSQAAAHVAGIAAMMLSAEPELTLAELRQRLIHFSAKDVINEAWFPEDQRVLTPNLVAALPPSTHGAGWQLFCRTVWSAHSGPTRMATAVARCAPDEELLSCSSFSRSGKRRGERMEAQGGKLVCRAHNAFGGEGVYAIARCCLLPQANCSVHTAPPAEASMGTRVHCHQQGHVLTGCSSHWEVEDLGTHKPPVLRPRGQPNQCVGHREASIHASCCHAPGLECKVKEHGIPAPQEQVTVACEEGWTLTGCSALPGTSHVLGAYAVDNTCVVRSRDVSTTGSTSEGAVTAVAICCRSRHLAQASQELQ

How the values were obtained:
[1] = target: T1, human proprotein convertase subtilisin/kexin type 9 (hPCSK9), recombinant (Homo sapiens, UniProt Q8NBP7, biotinylated with a biotinylation kit for the BLI assay only (sites not given)); experiment: BLI; ForteBio Octet QKe; biotinylated hPCSK9 (50 μg/mL) immobilised on streptavidin biosensors; 2-fold dilutions of antibody (scFvs 6000-93.75 nM, mAbs 800-12.5 nM), association 300 s or longer, dissociation 600 s in SD buffer (PBS, 0.02% Tween 20, 0.1% BSA, pH 7.4); global fit; settings: both partners purified
T1 construct: signal peptide in the construct; source: CHO-3E7, transiently transfected (pTT5-hPCSK9), supernatant purified (Ni-IMAC, Superdex 200 SEC)

[2] = target: T1, human proprotein convertase …; experiment: cell-based or functional assay

B1: h5E12-L230G, humanized full-length IgG1 mAb against hPCSK9 (antibody, V domains shown)
VH: QVQLVQSGAEVKKPGASVKVSCKASGYTFTSYWMHWVRQAPGQGLEWMGEINPSNGRTDHSEKFKNRVTMTRDTSTSTVYMELSSLRSEDTAVYYCARFHYDYDYFDYWGQGTLVTVSS
VL: DIVMTQSPSSLSASVGDRVTITCKASRNVGNSVGWYQQKPGKAPKLLIYSASYRYSGVPSRFSGSGSGTDFTLTISSLQPEDFATYYCQQYNRYPGTFGQGTKVEIK
B1 was tested, and the Kd [1] was 1.72 nM, the koff [1] was 4.84e-05 s⁻¹ and the kon [1] was 28100 M⁻¹ s⁻¹. For the same binder, the “reduction in serum LDL-C relative to the model group in mice over-expressing hPCSK9, h5E12-L230G at 1, 3 and 10 mg/kg (5.8%, 30.1%, 36.2%)” value [2] was 36.2%.
